The values that follow come from US20240270821A1, “GIP/GLP1/GCG TRI-RECEPTOR AGONISTS AND USES THEREOF” (priority 2023, published 2024).

Protein sequences, listed by entry. Tags and fused reporters are not part of them. Residues count along the entry.
UniProt P43220, 24-463: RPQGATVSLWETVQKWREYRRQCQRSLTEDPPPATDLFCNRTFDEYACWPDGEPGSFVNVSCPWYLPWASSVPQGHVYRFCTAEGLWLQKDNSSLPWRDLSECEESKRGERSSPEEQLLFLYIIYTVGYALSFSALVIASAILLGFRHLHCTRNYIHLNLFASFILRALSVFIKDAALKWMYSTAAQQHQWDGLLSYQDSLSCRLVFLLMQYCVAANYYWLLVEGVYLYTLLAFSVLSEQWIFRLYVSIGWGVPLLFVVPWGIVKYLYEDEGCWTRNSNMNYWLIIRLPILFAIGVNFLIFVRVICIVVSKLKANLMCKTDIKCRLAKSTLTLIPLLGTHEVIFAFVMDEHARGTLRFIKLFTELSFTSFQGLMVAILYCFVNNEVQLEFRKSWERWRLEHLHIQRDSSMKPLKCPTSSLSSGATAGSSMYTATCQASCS

In the test the target is hGLP-1R (Homo sapiens, UniProt P43220). Put plainly: Functional cAMP activity in the presence of 1% HSA. In kind it is cell-based. The conditions noted are these: read-out: cAMP Rel EC50, hGLP-1R.

As to `CC[C@H](C)[C@H](NC(=O)[C@H](Cc1ccccc1)NC(=O)[C@H](C)NC(=O)C(C)(C)NC(=O)[C@H](CCC(N)=O)NC(=O)[C@H](C)NC(=O)[C@H](CCCCNC(=O)CC[C@H](NC(=O)CC[C@H](NC(=O)CCCCCCCCCCCCCCCCC(=O)O)C(=O)O)C(=O)O)NC(=O)[C@H](CCCCN)NC(=O)[C@H](CC(=O)O)NC(=O)[C@H](CC(C)C)NC(=O)[C@H](CC(C)C)NC(=O)[C@@H](NC(=O)[C@H](CO)NC(=O)[C@H](Cc1ccncc1)NC(=O)[C@H](CC(=O)O)NC(=O)[C@H](CO)NC(=O)[C@@H](NC(=O)[C@](C)(Cc1ccccc1F)NC(=O)[C@@H](NC(=O)CNC(=O)[C@H](CCC(N)=O)NC(=O)C(C)(C)NC(=O)[C@@H](N)Cc1ccc(O)cc1)[C@@H](C)O)[C@@H](C)O)[C@@H](C)CC)C(=O)N[C@@H](CCC(=O)O)C(=O)N[C@@H](Cc1ccc(O)cc1)C(=O)N[C@@H](CC(C)C)C(=O)N[C@H](C(=O)N[C@@H](CCC(=O)O)C(=O)NCC(=O)NCC(=O)N1CCC[C@H]1C(=O)N[C@@H](CO)C(=O)N[C@@H](CO)C(=O)NCC(=O)N[C@@H](C)C(=O)N1CCC[C@H]1C(=O)N1CCC[C@H]1C(=O)N1CCC[C@H]1C(=O)N[C@@H](CO)C(=O)NCC(=O)N[C@H](C(=O)N[C@@H](CCC(=O)O)C(N)=O)[C@@H](C)O)[C@@H](C)O` [Example 554], the concentration giving a half-maximal response (EC50) – broadly, the concentration needed to bring the measured effect to its halfway point – is 60.8 nM.
